Earlier results, collected in patent US5613958A, “Transdermal delivery systems for the modulated administration of drugs” (PP Holdings Inc., priority 1995, dated 1997).

Conditions: dose regimens of ISDN and IS-5-MN; literature studies

In the case of O=[N+]([O-])O[C@@H]1CO[C@H]2[C@@H]1OC[C@@H]2O [IS-5-MN, isosorbide 5-mononitrate], the “plasma concentration of IS-5-MN before next dose with continuous antianginal efficacy” value is listed as “below 100 ng/ml”.
